Experimental data taken from patent publication US20130071357A1, “IDENTIFICATION, PROLIFERATION IN SITU, HARVESTING, SEPARATION, AND TRANSPLANTATION OF ADULT-DERIVED REGENERATIVE PLURIPOTENT TRANSITIONAL BLASTOMERE-LIKE STEM CELLS AND METHODS OF TREATMENT THEREOF” (HEYGEN, LLC, priority 2011, published 2013).

Experiments:
[1] = system: adult pluripotent epiblast-like stem cells; experiment: induction of epiblast-like stem cells in culture; format: cell-based, rat; settings: ELSCs
Text: Adult pluripotent epiblast-like stem cells (ELSCs) are 6-8 microns in size as assessed by flow cytometry of living cells (Table 1, FIGS. 5,13) [Young et al., 1999]. ELSCs have the potential to form all the downstream somatic cells of the body (FIGS. 14,15) [Young et al., 2004a,b]. ELSCs will not form totipotent blastomeric-like stem cells, gametes (ovum and sperm) or their precursor cells (oogonia or spermatogonia) [Young and Black, 2005a]. […] Adult pluripotent epiblast-like stem cells have a unique pattern of cell surface markers (Table 1) [Young et al., 1999] and stain for stage-specific embryonic antigen (SSEA) (FIG. 8). […] Adult pluripotent epiblast-like stem cells are responsive to any lineage-induction agent across all three primary germ layer lineages (FIGS. 14,15; Table 1) [Young et al., 2004a,b; Young and Black, 2005]. […] As long as the adult pluripotent epiblast-like stem cell remains lineage-uncommitted, it is unresponsive to progression agents like insulin, IGF-I or IGF-II that accelerate the time frame of expression of tissue specific phenotypic differentiation markers (Table 1). […]

[2] = system: adult totipotent blastomeric-like stem cells; experiment: induction of blastomeric-like stem cells in culture; format: cell-based, rat; settings: BLSCs
Text: Adult blastomeric-like stem cells display a normal karyotype (FIG. 11). […] 1961; Rohme 1981; Young and Black, 2005a]. […] The smaller-sized adult totipotent blastomeric-like stem cells, i.e., from 0.2 microns to less than 1 micron in size can also be grown in suspension cultures in vitro (Table 1). Adult totipotent blastomeric-like stem cells are responsive to any lineage-induction agent across all three primary germ layer lineages. […] As long as the adult totipotent blastomeric-like stem cell remains lineage-uncommitted, it is unresponsive to progression agents like insulin, IGF-I or IGF-II that accelerate the time frame of expression for tissue specific phenotypic differentiation markers (FIG. 7; Table 1) [Young and Black, 2005a].
FIG. 7. Blastomeric-like stem cells (BLSCs) harvested from male Sprague-Dawley out bred rat 0001 and propagated from a single cell derived by serial dilution clonogenic analysis, then genomically labeled with LacZ to synthesize the beta-galactosidase gene product. Clone designated as Scl-44beta. […] A: Bright field microscopy, positive staining for cell-surface marker CEA-CAM-1. B-L is phase contrast microscopy to show unstained cells in field of view. […]

B1: bone morphogenetic protein-2: lineage-induction agent (protein, UniProt P12643 283-396, looked up)
Bone morphogenetic protein 2: QAKHKQRKRLKSSCKRHPLYVDFSDVGWNDWIVAPPGYHAFYCHGECPFPLADHLNSTNHAIVQTLVNSVNSKIPKACCVPTELSAISMLYLDENEKVVLKNYQDMVVEGCGCR
**Q.** What does the source list for B1?
**A.** response to lineage-induction agent [1]: forming cells (myoblasts and osteocytes respectively) belonging to the mesodermal lineage; response to lineage-induction agent [2]: forming cells (myotubes and bone, respectively) belonging to the mesodermal lineage
